Most compounds without a hit are left out; they make up all but 13% or so of the library.
Lamin A splicing: changes lamin A minigene splicing in HeLa cells; HeLa LMNA splicing GFP/RFP minigene ratio, 48 h; Potency, µM (series often up to 46.1 µM), for the others: top-dose ratio change, negative = inhibition, most hits filed as inhibitors; 200,000 tested, 0.01% active; AID 1487; active = well fitted inhibition curve with a large enough effect in the signal ratio, with a control signal flat, not every such curve was filed as active; inconclusive = small, poorly fitted or top-dose-only effect, or effect the other way, or a change in a side signal; the % refers to the signal ratio; note: potency is the fitted concentration of half-maximal effect; % is set by controls: 0 for no effect and ±100 for the full control effect
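Read-out is the ratio of GFP to DsRed2 object intensity, acquired by 488 nm laser-scanning cytometry on HeLa lamin A-EGFP minigene reporter cells. Compound incubation 48 hrs at 37 °C in Opti-MEM with 2% FBS; DMSO 0.5% final.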
ALDH1A1 inh: inhibitors of human aldehyde dehydrogenase 1A1. P00352. Purified ALDH1A1, NADH fluorescence, propionaldehyde substrate. Potency, µM (top dose mostly 75.3 µM), for the others: at the highest dose activity, negative = inhibition, most hits filed as inhibitors. 220,000 tested, 7.3% active; active = well fitted inhibition curve with a large enough effect, not every such curve was filed as active; inconclusive = small, poorly fitted or top-dose-only effect, or another doubt; inactive = no such curve, though single readings can be large or run the other way;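 note: potency is the fitted concentration of half-maximal effect; plate controls were no enzyme wells and a reference inhibitor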
G9a inh: inhibitors of human histone lysine methyltransferase G9a; Q96KQ7; G9a H3K9 monomethylation, AlphaScreen, 2 h; Potency, µM (highest dose often 102 µM), for the others: at the highest dose activity, negative = inhibition, most hits filed as inhibitors; 350,000 tested, 8.8% active; AID 504332; note: potency is the fitted concentration of half-maximal effect; % is set by controls: 0 for no effect and ±100 for the full control effect; nearly all actives have a fitted effect of over 75% in size
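Step 1: enzyme (final 20 nM) with compound, 15 min RT. Step 2: substrate peptide 500 nM and SAM 20 uM, 2 h RT. Step 3: anti-H3K9me1 antibody and AlphaScreen beads, 10 min, then plate read.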
Sfp inh: qHTS Assay for Inhibitors of Bacillus subtilis Sfp phosphopantetheinyl transferase (PPTase). Potency, µM, inactives show max response, negative = inhibition, most hits filed as inhibitors. Biochemical Sfp PPTase activity, qHTS. AID 1490, 2009. 4'-phosphopantetheinyl transferase ffp (Bacillus subtilis), Q9F4F7. hit rate 3.5% among 310,000; active = well fitted inhibition curve with a large enough effect; inconclusive = small, poorly fitted or top-dose-only effect, or another doubt; inactive = no such curve, though single readings can be large or run the other way;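 also: the enzyme is Sfp with the accession as filed and its product quenches rhodamine fluorescence; potency is read from the fitted curve at half-maximal effect; 0% = enzyme reaction without inhibitor and -100% = no enzyme wells; top concentration of the series not given in the record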
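Buffer: 50 mM Hepes-Na pH 7.6, 10 mM MgCl2, 0.01% Nonidet P-40, 0.01% BSA. Enzyme 15 nM, pre-exposed to compound 15 min; substrates then added and fluorescence change tracked over 30 min.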
JMJD2E inh: JMJD2E (human) inhibition; Potency, µM (series often up to 57.1 µM), for inactives: at the top dose activity change, negative = inhibition, most hits filed as inhibitors; JMJD2E catalytic domain, FDH-coupled NADH fluorescence (FDH is formaldehyde dehydrogenase); B2RXH2; 230,000 tested, 1.6% active; AID 2147; active = well fitted inhibition curve with a large enough effect, not every such curve was filed as active; inconclusive = small, poorly fitted or top-dose-only effect, or another doubt; inactive = no such curve, though single readings can be large or run the other way;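 note: potency is the fitted concentration of half-maximal effect; 0% = wells with enzyme and -100% = buffer wells without enzyme; nearly all actives have a fitted effect of over 50% in size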
miR-21 reporter: raises the signal of a miR-21 reporter | HeLa miR-21 FLuc reporter, luciferase, 48 h | Potency, µM (doses to about 38.3 µM), for the others: at the highest dose reporter change, positive = more light | 340,000 tested, under 10 active | AID 2288; active = well fitted rising curve with a large enough effect; inconclusive = small, poorly fitted or top-dose-only effect; inactive = no such curve, though single readings can be large or run the other way;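 also: % of control where 0% means no effect; miR-21 action dims this reporter so a rising signal means less miR-21 action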
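Luminescence from a firefly luciferase reporter carrying a miR-21 binding site downstream, stably expressed under a CMV promoter in HeLa cells that make miR-21 endogenously, reports miRNA modulation after 48 h compound exposure up to approximately 40uM final.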
An asterisk follows results filed as active; ? = inconclusive; . = no result; ! = not active in a repeat; [ ] = dose if it differs, or a comment. Unless noted, calls come from the whole dose curve; as a rule, active = well fitted curve in the direction sought with a large enough effect; inconclusive = small, poorly fitted or top-dose-only effect, or another doubt; inactive = no such curve, though single readings can be large; an effect the other way counts as inactive or inconclusive.

1: CCOc1ccc(C2/C(=C(\O)c3ccc4c(c3)OCCO4)C(=O)C(=O)N2CCN2CCOCC2)cc1OC (stereo unspecified)
2: O=C1C(=O)N(CCN2CCOCC2)C(c2cccc(Cl)c2)/C1=C(\O)c1ccc2c(c1)OCCO2 (stereo unspecified)
3: O=C1C(=O)N(CCN2CCOCC2)C(c2ccc(Cl)c(Cl)c2)/C1=C(/O)c1ccc2c(c1)OCO2 (stereo unspecified)
4: COc1cc(C2/C(=C(\O)c3ccc4c(c3)OCCO4)C(=O)C(=O)N2CCN2CCOCC2)cc(OC)c1OC (stereo unspecified)
5: COC(=O)CSc1nc(C(C)C)nc2ccccc12
6: CC(C)c1nc(SCC(=O)c2ccc(F)cc2)c2ccccc2n1

assay / compound	1	2	3	4	5	6
Lamin A splicing	.	.	.	.	-0.8%	.
ALDH1A1 inh	.	.	.	.	-1.0%	20µM*
G9a inh	44.7µM*	35.5µM*	?	.	17.8%	39.8µM*
Sfp inh	-6.9%	25.7%	8.1%	-4.9%	15.6%	31.6µM*
JMJD2E inh	.	.	.	.	5.9%	-19.2%
miR-21 reporter	-1.4%	-6.2%	-5.4%	-0.2%	-5.6%	-4.9%

7: O=C(CSc1cnc2ccccc2n1)c1ccc(F)cc1
8: CC(C)c1nc(SCC(=O)Nc2ccc(N(C)C)cc2)c2ccccc2n1
9: Cc1scc(-c2n[nH]c(=S)n2Cc2ccccc2)c1C
10: S=c1[nH]nc(-c2ccc3ccccc3n2)n1Cc1ccccc1
11: CCc1c(-c2n[nH]c(=S)n2Cc2ccccc2)csc1C
12: CCn1c(-c2sc(-c3ccccc3)nc2C)n[nH]c1=S

assay / compound	7	8	9	10	11	12
Lamin A splicing	?	.	5.9%	?	?	?
ALDH1A1 inh	25.1µM*	?	-10.2%	6.3%	10µM*	-0.8%
G9a inh	7.08µM*	8.91µM*	1.58µM*	?	2µM*	-127.9%[59 µM]
Sfp inh	-61.3%	-6.8%	-1.0%	1.5%	-10.6%	-20.2%
JMJD2E inh	-11.3%	0.6%	-2.1%	-20.8%	3.3%	?
miR-21 reporter	-54.6%	?	0.2%	0.6%	3.2%	-4.1%

The last three compounds of the section above are carried over, then new ones follow:
10: S=c1[nH]nc(-c2ccc3ccccc3n2)n1Cc1ccccc1
11: CCc1c(-c2n[nH]c(=S)n2Cc2ccccc2)csc1C
12: CCn1c(-c2sc(-c3ccccc3)nc2C)n[nH]c1=S
13: N#Cc1c2ccc(O)cc2n2ccccc12
14: N#Cc1c2ccc(OCC(=O)NCc3ccco3)cc2n2ccccc12
15: Cc1c(C(C)(C)C)c(C=S)n2ccccc12
16: CC(C)(C)c1ccc(-c2nc(C=O)c3ccccn23)cc1
17: COCCN(C(=O)c1ccco1)c1nnc(-c2ccc(F)cc2)s1
18: CCCN(C(=O)c1ccco1)c1nnc(-c2ccccc2C)s1

assay / compound	10	11	12	13	14	15	16	17	18
Lamin A splicing	?	?	?	?	.	19.8%	?	29.4%[46 µM]	.
ALDH1A1 inh	6.3%	10µM*	-0.8%	?	.	22.4µM*	?	?	8.91µM*
G9a inh	?	2µM*	-127.9%[59 µM]	3.98µM*	20.3%[2.33 µM]	3.98µM*	-6.6%[2.33 µM]	?	.
Sfp inh	1.5%	-10.6%	-20.2%	-4.8%	4.0%	50.1µM*	13.7%	15.4%	?
JMJD2E inh	-20.8%	3.3%	?	?	.	0.6%	?	-13.6%	9.5%
miR-21 reporter	0.6%	3.2%	-4.1%	19.7%	1.7%	-3.2%	-12.4%	-48.5%	-42.2%

19: Cc1ccc(OCC2Cn3c(nc4c3c(=O)[nH]c(=O)n4C)O2)cc1C (stereo unspecified)
20: Cc1nn(Cc2ccc(Cl)cc2)c2sc(C(=O)O)cc12
21: O=C1N=C(N2CCOCC2)S/C1=C/c1ccc(-c2ccc(F)cc2)o1
22: Cc1ccc(-c2ccc(/C=C3\SC(N4CCOCC4)=NC3=O)o2)cc1
23: Cc1ccc(/C=C2\SC(N3CCN(C(c4ccccc4)c4ccccc4)CC3)=NC2=O)o1
24: CCc1nc(SCc2ccc(OCC(C)C)cc2)n[nH]1

assay / compound	19	20	21	22	23	24
Lamin A splicing	.	12.6%[46 µM]	?	?	?	.
ALDH1A1 inh	.	-5.4%	-1.1%	?	-6.2%	.
G9a inh	11.8%	1µM*	.	31.6µM*	4.47µM*	15.9%
Sfp inh	13.6%	12.2%	-4.1%	39.8µM*	3.98µM*	17.8%
JMJD2E inh	.	6.7%	-2.8%	-15.4%	0.2%	.
miR-21 reporter	-0.5%	-2.4%	-18.0%	0.0%	-0.1%	-9.5%

25: CC(C)(C)c1ccc(-c2nnc(SCC(=O)NC3CCS(=O)(=O)C3)n2N)cc1 (stereo unspecified)
26: Cc1ccccc1-n1c(-c2ccc(Cl)cc2)cnc1SCC(=O)NC1CCS(=O)(=O)C1 (stereo unspecified)
27: O=C(CSc1nnc(-c2ccccc2)n1-c1ccc(Cl)cc1)NC1CCS(=O)(=O)C1 (stereo unspecified)
28: CC(C)NC[C@@H](O)COc1ccc(CCOCC2CC2)cc1
29: CC(C)NCC(O)COc1ccc(CCOCC2CC2)cc1 (stereo unspecified)
30: COC(=O)Cn1cccc1C(=O)c1ccccc1

assay / compound	25	26	27	28	29	30
Lamin A splicing	3.5%[9.22 µM]	9.4%	-7.7%	?	?	13.0%
ALDH1A1 inh	?	?	?	-6.3%	-3.4%	2.2%
G9a inh	20µM*	8.91µM*	20.2%[59 µM]	4.0%[21.5 µM]	35.5µM*!	-7.5%
Sfp inh	-22.4%	-7.9%	21.4%	15.2%	7.2%	14.6%
JMJD2E inh	-11.0%	0.7%	6.0%	2.6%	5.8%	7.5%
miR-21 reporter	-20.5%	8.3%	-36.5%	.	-10.5%	-1.1%

31: O=C(O)Cn1cccc1C(=O)c1ccccc1
32: COc1ccccc1NC(=O)CSc1sc2c(O)cc(=O)[nH]c2c1C#N
33: COc1ccc(NC(=O)CSc2sc3c(O)cc(=O)[nH]c3c2C#N)c(OC)c1
34: COc1ccc(Cl)cc1NC(=O)CSc1sc2c(O)cc(=O)[nH]c2c1C#N
35: COc1ccc(CNC(=O)c2ccccc2SCC(=O)NCc2ccco2)cc1
36: Cc1ccccc1-c1ccc2ncnc(N(C)Cc3ccco3)c2c1

assay / compound	31	32	33	34	35	36
Lamin A splicing	?	.	.	.	.	?
ALDH1A1 inh	14.1µM*	.	.	.	.	3.6%
G9a inh	56.2µM*	8.91µM*	79.4µM*	?	-22.0%[12.7 µM]	-37.3%[0.501 µM]
Sfp inh	21.1%	39.8µM*	?	-28.6%	.	?
JMJD2E inh	-13.8%	.	.	.	.	.
miR-21 reporter	0.2%	1.5%	14.2%	12.1%	.	.

37: CCn1ccnc1CNC(=O)CC1C(=O)NCCN1Cc1ccccc1F (stereo unspecified)
38: CN(Cc1ccon1)C(=O)CC1C(=O)NCCN1Cc1ccccc1C(F)(F)F (stereo unspecified)
39: Cc1cc(CNC(=O)CC2C(=O)NCCN2CC(c2ccccc2)c2ccccc2)on1 (stereo unspecified)
40: CCc1ccc(CNC(=O)CC2C(=O)NCCN2Cc2ccccc2F)nc1 (stereo unspecified)
41: Cc1cc(C)n(CCNC(=O)CC2C(=O)NCCN2Cc2ccccc2C(F)(F)F)n1 (stereo unspecified)
42: Cc1cnc(CNC(=O)CC2C(=O)NCCN2Cc2ccccc2C(F)(F)F)cn1 (stereo unspecified)
43: Cc1cc(CNC(=O)CC2C(=O)NCCN2Cc2ccccc2C(F)(F)F)on1 (stereo unspecified)
44: COc1ccc2c(Sc3ccc(C)cc3)c(C(=O)NCC(C)c3ccccc3)[nH]c2c1 (stereo unspecified)
45: Nc1nc(CSC(=S)N2CCN(c3ccccc3)CC2)nc(Nc2ccccc2)n1

assay / compound	37	38	39	40	41	42	43	44	45
Lamin A splicing	?	.	.	.	.	.	.	.	?
ALDH1A1 inh	-9.2%	.	?	.	?	.	?	.	5.8%
G9a inh	20.2%[12.7 µM]	0.4%[12.7 µM]	.	79.4µM*	44.7µM*	31.6µM*	50.1µM*	?	44.7µM*
Sfp inh	1.6%	-1.8%	9.2%	14.9%	-5.2%	2.4%	6.3%	.	8.5%
JMJD2E inh	?	.	-18.3%	.	-14.9%	.	-9.0%	.	7.9%
miR-21 reporter	0.2%	-0.5%	-2.1%	0.1%	-1.3%	-1.0%	0.2%	-20.7%	3.1%
